# In PubChem BioAssay AID720647 (Broad Institute, 2013):
# Only a part is listed here, and it is no random draw. Some salts or complexes appear as unconnected parts, following the source record. Active and inactive are the calls of the source.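 How the source made its calls: active means drop in luminescence signal, shown as inhibition above about 50% in the replicate tests (limit read from the data, passing the limit was not always enough); inconclusive means probably only some replicates passing the limit; inactive means the rest.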
# System: Drosophila bursicon receptor LGR2 (rickets)
# Assay: inhibitors of bursicon-induced LGR2 CRE-luciferase signal, primary screen, cell-based, HEK293, CRE-luciferase reporter, bursicon stimulation (AID 720647);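 further: agonist challenge used bursicon conditioned medium at about half maximal strength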
# Conditions: bursicon-stimulated, 4 h, at 9.99 µM, hits give high values
row,SMILES,inhibition
1,Cc1cc(C)cc(OP(C)(N)=O)c1 (stereo unspecified),inactive: 11.1%
2,COc1ccccc1OP(C)(=O)Nc1cc(Cl)ccc1C (stereo unspecified),inactive: -0.055%
3,CCOC(=O)c1ccc(NP(C)(=O)Oc2ccccc2)cc1 (stereo unspecified),inactive: -6.99%
4,O=[N+]([O-])c1ccc2c(c1)C=Nc1ccccc1O2,inactive: 8.53%
5,Cc1cccc(C)c1OP(C)(N)=O (stereo unspecified),inactive: -5.01%
6,CC(C)(C)c1ccc(OP(C)(=O)Nc2ccc(SC(F)(F)F)cc2)cc1 (stereo unspecified),inactive: -2.52%
7,O=[N+]([O-])c1cc([N+](=O)[O-])c(Nc2cccnc2)c([N+](=O)[O-])c1,inactive: 16.4%
8,COc1ccccc1-c1ccccn1.O=[N+]([O-])c1cc([N+](=O)[O-])c(O)c([N+](=O)[O-])c1,inactive: -8.86%
9,CCN(CC)CCCOC(=O)C(O)(c1ccccc1)c1ccccc1,inactive: -7.44%
10,CP(=O)(Nc1ccccn1)Oc1ccc(Cl)cc1 (stereo unspecified),inactive: 13.5%
11,CCOC(=O)c1ccc(NP(C)(=O)Oc2ccc(OC)cc2)cc1 (stereo unspecified),inactive: 0.641%
12,Cc1cc(C)cc(OP(C)(=O)Nc2ccc(SC(F)(F)F)cc2)c1 (stereo unspecified),inactive: 11.9%
13,CP(=O)(NC(=O)Nc1ccccc1)Oc1ccccc1 (stereo unspecified),inactive: 7.15%
14,CP(=O)(Oc1ccccc1)OC(c1ccccc1)C(F)(F)F (stereo unspecified),inactive: -2.77%
15,Cc1cccc(C)c1OP(C)(=O)Nc1ccc(SC(F)(F)F)cc1 (stereo unspecified),inactive: 11.6%
16,CP(=O)(Nc1ccc(SC(F)(F)F)cc1)Oc1ccc(Cl)cc1 (stereo unspecified),inactive: -8.6%
17,CP(=O)(Nc1ccccc1Br)Oc1ccccc1 (stereo unspecified),inactive: -5.29%
18,COc1ccccc1OP(C)(=O)Nc1ccccc1 (stereo unspecified),inactive: -10.2%
19,COc1ccc(-c2ccccn2)cc1.O=[N+]([O-])c1cc([N+](=O)[O-])c(O)c([N+](=O)[O-])c1,inactive: -12.4%
20,CP(=O)(Nc1ccc(SC(F)(F)F)cc1)Oc1ccccc1 (stereo unspecified),inactive: 5.74%
21,CCCOc1ccc(NP(C)(=O)Oc2ccc(Cl)cc2)cc1 (stereo unspecified),inactive: -0.332%
22,CN1CCCCC1COC(=O)C1(O)c2ccccc2CCc2ccccc21 (stereo unspecified),inactive: 9.71%
23,CCOC(=O)C(CC)C1=NC(C)(C)Cc2ccccc21.O=[N+]([O-])c1cc([N+](=O)[O-])c(O)c([N+](=O)[O-])c1 (stereo unspecified),inactive: -10.4%
24,O=[N+]([O-])c1cc([N+](=O)[O-])c(Nc2nnnn2CCO)c([N+](=O)[O-])c1,inactive: 2.71%

row,SMILES,inhibition
1,CN(Cc1cccnc1)C(=O)COc1ccc(Cl)c(Cl)c1.O=[N+]([O-])c1cc([N+](=O)[O-])c(O)c([N+](=O)[O-])c1,inactive: 8.99%
2,O=[N+]([O-])c1cc([N+](=O)[O-])c(-n2nnc3ccccc32)c([N+](=O)[O-])c1,inactive: 17.4%
3,CP(=O)(Nc1cccc(Br)c1)Oc1ccccc1 (stereo unspecified),inactive: -14.1%
4,Cc1cc(C)cc(OP(C)(=O)Nc2ccccn2)c1 (stereo unspecified),inactive: 18.1%
5,CCOC(=O)c1ccc(NP(C)(=O)Oc2cc(C)cc(C)c2)cc1 (stereo unspecified),inactive: 6.63%
6,Cc1cc(C)cc(OP(C)(=O)Nc2ccc(C)cc2C)c1 (stereo unspecified),inactive: 3.65%
7,COc1ccccc1OP(C)(=O)Nc1cccc(Br)c1 (stereo unspecified),inactive: -3.88%
8,CC1=NCCc2c1[nH]c1ccccc21.O=[N+]([O-])c1cc([N+](=O)[O-])c(O)c([N+](=O)[O-])c1,inactive: 12.5%
9,O=C(O)c1cccc(Nc2c([N+](=O)[O-])cc([N+](=O)[O-])cc2[N+](=O)[O-])c1,inactive: 4.35%
10,CCCCCOc1ccc(NP(C)(=O)Oc2ccc(Cl)cc2Cl)cc1 (stereo unspecified),inactive: 0.148%
11,O=[N+]([O-])c1cc([N+](=O)[O-])c(OC2CCCCC2O)c([N+](=O)[O-])c1 (stereo unspecified),inactive: 10.1%
12,Cc1c([N+](=O)[O-])cc([N+](=O)[O-])c(Br)c1[N+](=O)[O-],inactive: 4.07%
13,CCOC(=O)c1ccc(NP(C)(=O)Oc2ccc(F)cc2)cc1 (stereo unspecified),inactive: -7.38%
14,COc1ccc(OP(C)(=O)Nc2ccc(SC(F)(F)F)cc2)cc1 (stereo unspecified),inactive: 1.7%
15,CCN(CC)CCCNc1ccccc1[N+](=O)[O-].O=[N+]([O-])c1cc([N+](=O)[O-])c(O)c([N+](=O)[O-])c1,inactive: 5.15%
16,COc1ccc2c(c1O)-c1c(O)c(OC)cc3c1[C@H](C2)[N+](C)(C)CC3.O=[N+]([O-])c1cc([N+](=O)[O-])c([O-])c([N+](=O)[O-])c1[O-],inactive: -15.5%
17,O=C(OC1CN2CCC1CC2)c1ccc([N+](=O)[O-])cc1 (stereo unspecified),inactive: 15.6%
18,O=C(OCCN1CCN(CCOCc2ccccc2)CC1)C(O)(c1ccccc1)c1ccccc1,inactive: -0.251%
19,CP(=O)(Nc1ccccc1F)Oc1ccccc1 (stereo unspecified),inactive: -4.23%
20,CC(C)c1ccc(OP(C)(=O)Nc2ccc(SC(F)(F)F)cc2)cc1 (stereo unspecified),inactive: 17.9%
21,O=[N+]([O-])c1cc([N+](=O)[O-])c(Nc2ccc(Cl)cc2)c([N+](=O)[O-])c1,inactive: 22.9%
22,Cc1ccccc1NP(C)(=O)Nc1ccccc1C,inactive: -0.969%
23,O=[N+]([O-])c1cc([N+](=O)[O-])c(C(F)(F)F)c([N+](=O)[O-])c1O,inactive: -8.53%
24,CCOP(=O)(CC)OCC,inactive: 20%

row,SMILES,inhibition
1,CP(=O)(Nc1ccc(SC(F)(F)F)cc1)Oc1ccc(F)cc1 (stereo unspecified),inactive: 2.55%
2,Cc1c(C(c2ccc3c(c2)OCO3)c2c(C)n(C)n(-c3ccccc3)c2=O)c(=O)n(-c2ccccc2)n1C.O=[N+]([O-])c1cc([N+](=O)[O-])c(O)c([N+](=O)[O-])c1,inactive: -9.18%
3,O=[N+]([O-])c1ccc(OP2(=O)COCCO2)cc1 (stereo unspecified),inactive: -0.43%
4,O=[N+]([O-])c1cc([N+](=O)[O-])c(NCC2CCS(=O)(=O)C2)c([N+](=O)[O-])c1 (stereo unspecified),inactive: 14.1%
5,Cc1cc(-c2cccc3ccccc23)c(C)cn1.O=[N+]([O-])c1cc([N+](=O)[O-])c(O)c([N+](=O)[O-])c1,inactive: -12.9%
6,COc1ccc(NP(C)(=O)Oc2ccccc2OC)cc1 (stereo unspecified),inactive: -24.5%
7,CCOC(=O)c1ccc(NP(C)(=O)Oc2ccc(Cl)cc2)cc1 (stereo unspecified),inactive: -8.15%
8,CP(=O)(OC12CC3CC(CC(C3)C1)C2)OC12CC3CC(CC(C3)C1)C2,inactive: 3.67%
9,CN(C)C(=O)c1c([N+](=O)[O-])cc([N+](=O)[O-])cc1[N+](=O)[O-],inactive: 24.6%
10,CC(C)(C)c1ccc(OP(C)(=O)O)cc1,inactive: -1.15%
11,COc1ccccc1OP(C)(=O)Nc1ccccc1Br (stereo unspecified),inactive: 8.36%
12,O=C(OCCCN1CCCC1)C(O)(c1ccccc1)C1CCCCC1 (stereo unspecified),inactive: -6.42%
13,CCc1ccc(OP(C)(=O)Nc2cccnc2)cc1 (stereo unspecified),inactive: 15.2%
14,COc1ccc(OP(C)(=O)Nc2ccc(Br)cc2)cc1 (stereo unspecified),inactive: 2.95%
15,O=[N+]([O-])c1cc([N+](=O)[O-])c(Nc2ccccn2)c([N+](=O)[O-])c1,inactive: -21.2%
16,COc1ccc(OP(C)(=O)Nc2ccccn2)cc1 (stereo unspecified),inactive: 2.92%
17,COc1ccccc1OP(C)(=O)Nc1ccc(Br)cc1 (stereo unspecified),inactive: -0.114%
18,CP(=O)(OCCOc1ccccc1)OCCOc1ccccc1,inactive: -7.28%
19,CCCCCCCCCCCCCCCC1C[N+](C)(C)CCOP(C)(=O)O1 (stereo unspecified),inactive: 14.3%
20,CP(=O)(Nc1ccc(Cl)cc1Cl)Oc1ccccc1 (stereo unspecified),inactive: -0.705%
21,COc1ccc(OP(C)(=O)Nc2ccccc2Br)cc1 (stereo unspecified),inactive: -1.58%
22,Cc1cc(C)cc(OP(C)(=O)Nc2cccc(C(F)(F)F)c2)c1 (stereo unspecified),inactive: 7.2%
23,O=C1C(O)=C([N+](=O)[O-])C(=O)C(O)=C1[N+](=O)[O-],inactive: 3.56%
